Results on 1 compound are retold here after patent US11471508B2, “HMGB1 antagonist treatment of diabetic peripheral neuropathy” (THE FEINSTEIN INSTITUTES FOR MEDICAL RESEARCH, priority 2019, dated 2022).

A short description of data set [1]: In vitro stability in mouse serum (HPLC). The conditions noted are these: 100 μg.
Data set [2] in a line: Degradation in rat plasma and whole blood.

SMILES strings stand for the structures.

As to `NC(=O)[C@H](CCC(=O)O)NC(=O)[C@H](CO)NC(=O)[C@H](CO)NC(=O)[C@@H](N)Cc1ccccc1` [P5779], in data set [1], the in-vitro half-life came to 60 min. The half-life for degradation came to 12 min in data set [2] (rat plasma) and 13 min in data set [2] (rat whole blood).
